Here are results for two substances from paper PMC9552169, “Mutations Increasing Cofactor Affinity, Improve Stability and Activity of a Baeyer–Villiger Monooxygenase” (ACS Catalysis, 2022).

The subject of this series is O=C1CCCCC1. Briefly: purified protein. Particulars: cyclohexanone taken from the standard assay (Figure 2: 100 μM NADPH, 50 mM TrisHCl pH 8.5).
Setting [1] is: variant L1-1, table prints only 'substrate'.
Setting [2] is: variant L3-4 (b21 also lists a silent 'Y452Y'), table prints only 'substrate'.

Take “CHMOAcineto (CHMOwt) (Acinetobacter johnsonii; G14A)”: under setting [1], the Km – broadly, the substrate concentration at which the rate is half of its maximum – came to 3.5 ± 0.3 µM; the kcat (in general, the maximal rate divided by the concentration of active sites) amounted to 24.2 s⁻¹; the kcat/Km (as a rule, the second-order rate constant that governs catalysis at low substrate concentration) is 7.06e+06 M⁻¹ s⁻¹.

For the substance “CHMOAcineto (CHMOwt) (Acinetobacter johnsonii; G14A/M400I/N336E/N477E/Q451K/Q473R/T453A/V454E)”, under setting [2], the Km came out at 5.0 ± 1.5 µM, the kcat worked out at 16.3 s⁻¹ and the specificity constant (kcat/Km) worked out at 3.19e+06 M⁻¹ s⁻¹.
